Values of other authors as cited in patent publication US20190185438A1 (Tonix Pharmaceuticals Holding Corp., priority 2016, published 2019).

Tested on: patients with fibromyalgia
Details: 8 weeks

SMILES: CCOc1ccccc1O[C@@H](c1ccccc1)[C@@H]1CNCCO1 [Esreboxetine, (2S)-2-[(S)-(2-ethoxyphenoxy)-phenylmethyl]morpholine]
- Outcomes relevant to fibromyalgia, including the PGIC, function, and fatigue: improvements
